Source: patent publication US20060211075

Assays:
[1] = system: T1, peptide 13, Ac-Glu-Glu-Glu-Ile-Tyr-Dap(NBD)-Glu-Ile-Glu-Ala
T1 sequence: EEEIYXEIEA

[2] = system: T2, peptide 14, Ac-Glu-Glu-Glu-Ile-Tyr-Gly-Glu-Ile-Dab(dapoxyl)-Ala
T2 sequence: EEEIYGEIXA

[3] = system: peptide 23, Dap-substituted pyrene derivative at Y+3
[4] = system: peptide 25, Dab-modified pyrene analogue at Y-2

Substance: Src kinase
- Km [1]: Km=32±0.5 µM
- Vmax [1]: Vmax=1.4±0.1 µmol/min·mg
- Km [2]: Km=4.8±0.8 µM
- Vmax [2]: Vmax=1.5±0.1 µmol/min·mg
- Km [3]: 93 µM
- Vmax [3]: 5.2 µmol/min/mg
- Km [4]: 21 µM
- Vmax [4]: 2.4 µmol/min/mg
